Values of other authors in patent US6004969A, “Transdermal delivery of buprenorphine preparations” (National Science Council, priority 1997, dated 1999).

Experiments:
mu-receptor = settings: words
kappa receptor = settings: words

CO[C@]12CC[C@@]3(C[C@@H]1[C@](C)(O)C(C)(C)C)[C@H]1Cc4ccc(O)c5c4[C@@]3(CCN1CC1CC1)[C@H]2O5 [Buprenorphine, 21-cyclo-propylmethyl-7-α-[(S)-1-hydroxy-1,2,2-trimethylpropyl]-6,14-endoethano-6,7,8,14-tetrahydroripavine]
mu-receptor activity (mu-receptor): mu-receptor agonist | kappa receptor activity (kappa receptor): kappa receptor antagonist
